Experimental data published in patent US7390873B2, “Antimicrobial cationic peptides” (University of British Columbia, priority 1995, dated 2008).

Legend:
[1] = system: Salmonella typhimurium 14028S; format: cell-based; settings: for MIC S. typhimurium: 24 h
[2] = system: Salmonella typhimurium 14028S; test: Relative MIC of crude preparations of recombinant peptides; format: cell-based; settings: for Gram-negative activity relative to indolicidin: from MICs of crude preparations of recombinant peptides
From the text: Expression and purification of various cationic peptides has previously been described (Hancock et al., U.S. Ser. No. 08/575,052, incorporated herein by reference, and Gene, 134 (1993) 7-13). In order to recombinantly express various antimicrobial peptides described below, oligonucleotides representing both strands of DNA encoding the various peptides were synthesized on an Applied Biosystems 392 DNA/RNA synthesizer using conventional methods. After annealing of the strands of DNA, the resulting DNA fragments were cloned into the Staphyloccus aereus expression vector pRIT5. Following transformation of the various clones into E. Coli DH5α, the recombinant plasmids were purified and sequenced and then electroporated (Bio Rad Gene Pulser Transfection Apparatus) into S. aereus K147.

[3] = system: Salmonella typhimurium 14028S; test: Screening of recombinant clones, modified broth MIC assay; settings: peptide preparation from clone; 8-well doubling dilution; 24 hours

| Compound | MIC S. typhimurium [1] [µg/mL] | also measured |
| --- | --- | --- |
| ILKKWPWWPWRRK [CP-11] | 2 | – |
| CC[C@@H](C)[C@@H](N)C(=O)N[C@@H](CC(C)C)C(=O)N[C@@H](CCCCN)C(=O)N[C@@H](CCCCN)C(=O)N[C@@H](Cc1c[nH]c2ccccc12)C(=O)N1CCC[C@H]1C(=O)N[C@@H](Cc1c[nH]c2ccccc12)C(=O)N[C@@H](Cc1c[nH]c2ccccc12)C(=O)N1CCC[C@H]1C(=O)N[C@@H](Cc1c[nH]c2ccccc12)C(=O)N[C@@H](CCCNC(=N)N)C(=O)N[C@@H](CCCNC(=N)N)C(=O)N[C@@H](CCCCN)C(=O)OC [CP-11DC] (H-[dI]LKKWPWWPWRRK-OMe; N-terminus assumed) | 2 (≈ 1.06 µM) | – |
| ILKKWPWWPWKWKK [CP-13] | 4 | – |
| CC[C@H](C)[C@H](N)C(=O)N[C@@H](CC(C)C)C(=O)N1CCC[C@H]1C(=O)N[C@@H](Cc1c[nH]c2ccccc12)C(=O)N[C@@H](CCCCN)C(=O)N[C@@H](Cc1c[nH]c2ccccc12)C(=O)N1CCC[C@H]1C(=O)N[C@@H](Cc1c[nH]c2ccccc12)C(=O)N[C@@H](Cc1c[nH]c2ccccc12)C(=O)N1CCC[C@H]1C(=O)N[C@@H](Cc1c[nH]c2ccccc12)C(=O)N[C@@H](CCCNC(=N)N)C(=O)N[C@@H](CCCNC(=N)N)C(=O)OC [Indolicidin-C] | 2 (≈ 1.04 µM) | – |
| CC[C@@H](C)[C@@H](N)C(=O)N[C@@H](CC(C)C)C(=O)N1CCC[C@H]1C(=O)N[C@@H](Cc1c[nH]c2ccccc12)C(=O)N[C@@H](CCCCN)C(=O)N[C@@H](Cc1c[nH]c2ccccc12)C(=O)N1CCC[C@H]1C(=O)N[C@@H](Cc1c[nH]c2ccccc12)C(=O)N[C@@H](Cc1c[nH]c2ccccc12)C(=O)N1CCC[C@H]1C(=O)N[C@@H](Cc1c[nH]c2ccccc12)C(=O)N[C@@H](CCCNC(=N)N)C(=O)N[C@@H](CCCNC(=N)N)C(=O)OC [Indolicidin-DC] | 4 (≈ 2.08 µM) | – |
| ILPWKWPWYVRR [CP-IA] | >32 | – |
| CC[C@@H](C)[C@@H](N)C(=O)N[C@@H](CC(C)C)C(=O)N1CCC[C@H]1C(=O)N[C@@H](Cc1c[nH]c2ccccc12)C(=O)N[C@@H](CCCCN)C(=O)N[C@@H](Cc1c[nH]c2ccccc12)C(=O)N1CCC[C@H]1C(=O)N[C@@H](Cc1c[nH]c2ccccc12)C(=O)N[C@@H](Cc1c[nH]c2ccccc12)C(=O)N1CCC[C@H]1C(=O)N[C@@H](Cc1c[nH]c2ccccc12)C(=O)N[C@@H](CCCNC(=N)N)C(=O)N[C@@H](CCCNC(=N)N)C(=O)O [Indolicidin-D] | 4 (≈ 2.1 µM) | – |
| FFKKFPFFPFRRK [CP-24] | 8 | – |
| ILPWKKWPWWRWRR [CP-3R] | – | Activity against gram-negative bacteria compared with indolicidin-R ([2]; MIC assay): increased activity; Gram-negative activity relative to indolicidin [2]: 4X; Wells of doubling dilution series in which growth of the test organism was prevented [3]: first and second; MIC S. typhimurium 14028S [1]: 8 µg/mL |
| CC[C@H](C)[C@H](N)C(=O)N[C@@H](CC(C)C)C(=O)N1CCC[C@H]1C(=O)N[C@@H](Cc1c[nH]c2ccccc12)C(=O)N[C@@H](CCCCN)C(=O)N[C@@H](Cc1c[nH]c2ccccc12)C(=O)N1CCC[C@H]1C(=O)N[C@@H](Cc1c[nH]c2ccccc12)C(=O)N[C@@H](Cc1c[nH]c2ccccc12)C(=O)N1CCC[C@H]1C(=O)N[C@@H](Cc1c[nH]c2ccccc12)C(=O)N[C@@H](CCCNC(=N)N)C(=O)N[C@@H](CCCNC(=N)N)C(=O)O [Indolicidin-R, reference compound] | – | Gram-negative activity relative to indolicidin [2]: 1X; Wells of doubling dilution series in which growth of the test organism was prevented [3]: first; MIC S. typhimurium 14028S [1]: 16 µg/mL (≈ 8.39 µM) |
| CC[C@H](C)[C@H](N)C(=O)N[C@@H](CC(C)C)C(=O)N[C@@H](CCCCN)C(=O)N[C@@H](CCCCN)C(=O)N[C@@H](Cc1c[nH]c2ccccc12)C(=O)N1CCC[C@H]1C(=O)N[C@@H](Cc1c[nH]c2ccccc12)C(=O)N[C@@H](Cc1c[nH]c2ccccc12)C(=O)N1CCC[C@H]1C(=O)N[C@@H](Cc1c[nH]c2ccccc12)C(=O)N[C@@H](CCCNC(=N)N)C(=O)N[C@@H](CCCNC(=N)N)C(=O)N[C@@H](CCCCN)C(=O)OC [CP-11C] (H-ILKKWPWWPWRRK-OMe) | 1 (≈ 0.528 µM) | – |
| CC[C@@H](C)[C@@H](N)C(=O)N[C@@H](CC(C)C)C(=O)N[C@@H](CCCCN)C(=O)N[C@@H](CCCCN)C(=O)N[C@@H](Cc1c[nH]c2ccccc12)C(=O)N1CCC[C@H]1C(=O)N[C@@H](Cc1c[nH]c2ccccc12)C(=O)N[C@@H](Cc1c[nH]c2ccccc12)C(=O)N1CCC[C@H]1C(=O)N[C@@H](Cc1c[nH]c2ccccc12)C(=O)N[C@@H](CCCNC(=N)N)C(=O)N[C@@H](CCCNC(=N)N)C(=O)N[C@@H](CCCCN)C(=O)O [CP-11D] (H-[dI]LKKWPWWPWRRK-OH) | 2 (≈ 1.06 µM) | – |

Converted amounts (≈) assume the structure as drawn. Where a SMILES comes first, the peptide text is derived from it. Where no end group is shown, it is not given here. [ ]: non-standard residue; d: D form.
